System: neuropathic pain (allodynia against cold) in male Sprague-Dawley rats
Experiment: Bennett test on rats (cold allodynia on 4° C. metal plate)
Details: intravenous, ketamine 4.64 mg/kg, then fades away, FIG. 1

CNC1(c2ccccc2Cl)CCCCC1=O (stereo not shown)
period for which the analgesic effect lasts: about 3 hours

From patent publication US20040092531A1
